In patent US20170290925A1, “Conjugates And Conjugating Reagents” (priority 2014, published 2017):

System: JIMT-1 cells (breast carcinoma) xenograft
Assay: JIMT-1 mouse xenograft study (Example 15)
Type: in vivo, NMRI nude mice
Settings: single 5 mg/kg dose i.v.
Method: Trastuzumab-drug conjugate 27 was prepared from reagent 9 by the method described in Example 5.
Healthy female NMRI nude mice (RjOrl:NMRI-Foxn1^nu/Foxn1^nu) aged 6 weeks at arrival were used for cell inoculation. The animals were maintained in SPF health status according to the FELASA guidelines in housing rooms under controlled environmental conditions.
Tumours were induced by subcutaneous injection of 5×10^6 JIMT-1 cells (breast carcinoma) in 200 μL of cell suspension in PBS into the right flank. Matrigel (40 μL Matrigel per 200 μL cell suspension) was added shortly before inoculation of tumour cells. Tumours were measured twice a week with calipers, and the volume was estimated using the formula: […]
When the tumour volumes reached a mean tumour volume of approximately 150 mm^3, the animals were randomized into groups of ten mice (128 mm^3 mean tumor volume) and treatment was initiated (Day 0). All test substances were injected via the tail vein (i.v., bolus). […]
Mice viability and behaviour were recorded every day. Body weights were measured twice a week. The animals were euthanized when a humane endpoint was reached (e.g. calculated tumour weight of >10% body weight, animal body weight loss of >20% compared to the body weight at group distribution, ulceration of tumours, lack of mobility, general signs of pain), or at a pre-determined study end date.

Kadcyla®: commercial product, comparative in JIMT-1 xenograft studies [reference compound]
Effect on tumour volume: little effect over the vehicle control
